Target: T1, BTK enzyme (recombinant full-length BTK, hBTK) (Homo sapiens, UniProt Q06187)
T1 construct: recombinant protein from baculovirus-transfected Sf9 cells: full-length BTK, 6HIS-tag cleaved; 6HIS (cleaved yes); made in house; host or cells: baculovirus-transfected Sf9 cells
Test: BTK enzyme activity assay, LANCE TR-FRET
Assay type: biochemical
Settings: 50 pM hBTK, 2 μM biotin-A5-peptide, 25 μM ATP; 60 min compound & enzyme incubation

Protein sequences, listed by entry. Tags and fused reporters are not part of them. Lines headed by an entry give the natural chain unless they say otherwise; changes in a name come on top.
UniProt Q06187: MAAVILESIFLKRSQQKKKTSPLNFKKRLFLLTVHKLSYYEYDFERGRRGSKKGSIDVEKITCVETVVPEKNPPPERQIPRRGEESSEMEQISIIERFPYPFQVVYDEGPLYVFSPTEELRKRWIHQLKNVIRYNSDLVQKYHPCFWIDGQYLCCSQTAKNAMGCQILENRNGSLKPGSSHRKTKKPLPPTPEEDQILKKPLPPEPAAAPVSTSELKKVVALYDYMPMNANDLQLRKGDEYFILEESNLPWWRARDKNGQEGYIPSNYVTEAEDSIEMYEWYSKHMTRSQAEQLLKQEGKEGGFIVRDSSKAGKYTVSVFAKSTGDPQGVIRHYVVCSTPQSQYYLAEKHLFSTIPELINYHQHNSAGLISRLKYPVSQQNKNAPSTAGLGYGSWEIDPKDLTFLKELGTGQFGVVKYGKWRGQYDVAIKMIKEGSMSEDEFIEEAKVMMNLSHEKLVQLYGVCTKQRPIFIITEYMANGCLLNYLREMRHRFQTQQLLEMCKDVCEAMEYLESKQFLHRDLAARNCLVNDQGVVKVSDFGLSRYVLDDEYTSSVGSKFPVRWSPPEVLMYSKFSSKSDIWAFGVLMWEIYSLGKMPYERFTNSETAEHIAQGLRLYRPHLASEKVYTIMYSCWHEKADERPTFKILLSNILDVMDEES

IC50: 190 pM
Structure (SMILES): COc1cc(C(=O)Nc2cc(C(F)(F)F)ccn2)ccc1-c1nc([C@@H]2CC[C@H]3CCC(=O)N3C2)n2ccnc(N)c12 [Example 88, 4-(8-amino-3-((6R,8aS)-3-oxooctahydroindolizin-6-yl)imidazo[1,5-a]pyrazin-1-yl)-3-methoxy-N-(4-(trifluoromethyl)pyridin-2-yl)benzamide]
